# Assay results from ChEMBL document CHEMBL6087474, “Discovery of an Efficacious RET PROTAC Degrader with Enhanced Antiproliferative Activity against Resistant Cancer Cells Harboring RET Solvent-Front Mutations” (J Med Chem, 2025).
# Legend:
# BaF3 [1] = assay: PROTAC activity at CRBN/KIF5B-RET (unknown origin) expressed in mouse BaF3 cells assessed as induction of RET degradation by measuring fold change at 0.4 nM measured after 6 hrs by Western blot analysis; assay type: cell-based; details: Homo sapiens
# BaF3 [2] = assay: PROTAC activity at CRBN/KIF5B-RET (unknown origin) expressed in mouse BaF3 cells assessed as induction of RET degradation by measuring fold change at 30 nM measured after 1 hrs by Western blot analysis; assay type: cell-based; details: Homo sapiens
# BaF3 [3] = assay: PROTAC activity at CRBN/KIF5B-RET (unknown origin) expressed in mouse BaF3 cells assessed as induction of RET degradation by measuring fold change at 30 nM measured after 8 hrs by Western blot analysis; assay type: cell-based; details: Homo sapiens
# BaF3 [4] = assay: PROTAC activity at CRBN/KIF5B-RET (unknown origin) expressed in mouse BaF3 cells assessed as induction of RET degradation by measuring fold change at 30 nM measured after 0.5 hrs in presence of cycloheximide by Western blot analysis; assay type: cell-based; details: Homo sapiens
# BaF3 [5] = assay: PROTAC activity at CRBN/KIF5B-RET (unknown origin) expressed in mouse BaF3 cells assessed as induction of RET degradation by measuring fold change at 30 nM preincubated with compound for 2 hrs followed by compound washout and measured after 0.5 hrs by Western blot analysis; assay type: cell-based; details: Homo sapiens
# BaF3 [6] = assay: PROTAC activity at CRBN/KIF5B-RET (unknown origin) expressed in mouse BaF3 cells assessed as induction of RET degradation by measuring fold change at 30 nM preincubated with MG132 for 2 hrs followed by compound addition and measured after 6 hrs by Western blot analysis; assay type: cell-based; details: Homo sapiens
# BaF3 [7] = assay: Inhibition of Shc (unknown origin) phosphorylation in mouse BaF3 cells stably expression wildtype KIF5B-RET assessed as fold change in phosphorylated Shc protein level at 300 nM measured after 6 hrs by Western blot analysis; assay type: cell-based; details: Homo sapiens
# BaF3 [8] = assay: Inhibition of RET (unknown origin) phosphorylation in mouse BaF3 cells stably expressing KIF5B-RET-G810C mutant assessed as fold change in phosphorylated RET protein level at 11.1 nM measured after 6 hrs by Western blot analysis; assay type: cell-based; details: Homo sapiens
# BaF3 [9] = assay: Inhibition of RET (unknown origin) phosphorylation in mouse BaF3 cells stably expressing KIF5B-RET-G810C mutant assessed as fold change in phosphorylated RET protein level at 33.3 nM measured after 6 hrs by Western blot analysis; assay type: cell-based; details: Homo sapiens
# BaF3 [10] = assay: Inhibition of Shc (unknown origin) phosphorylation in mouse BaF3 cells stably expression KIF5B-RET G810C mutant assessed as fold change in phosphorylated Shc protein level at 100 nM measured after 6 hrs by Western blot analysis; assay type: cell-based; details: Homo sapiens
# BaF3 [11] = assay: Inhibition of Shc (unknown origin) phosphorylation in mouse BaF3 cells stably expression KIF5B-RET G810R mutant assessed as fold change in phosphorylated Shc protein level at 33.3 nM measured after 6 hrs by Western blot analysis; assay type: cell-based; details: Homo sapiens
# BaF3 [12] = assay: Inhibition of Shc (unknown origin) phosphorylation in mouse BaF3 cells stably expression KIF5B-RET G810R mutant assessed as fold change in phosphorylated Shc protein level at 100 nM measured after 6 hrs by Western blot analysis; assay type: cell-based; details: Homo sapiens
# BaF3 [13] = assay: Inhibition of Shc (unknown origin) phosphorylation in mouse BaF3 cells stably expression KIF5B-RET G810R mutant assessed as fold change in phosphorylated Shc protein level at 300 nM measured after 6 hrs by Western blot analysis; assay type: cell-based; details: Homo sapiens
# [14] = test system: Kinesin-1 heavy chain/ Tyrosine-protein kinase receptor RET (Homo sapiens), P07949+P33176 [G810C]; assay: In vivo PROTAC activity at CRBN/KIF5B-RET-G810C mutant in male BALB/c mouse model implanted with mouse BaF3 cells stably expressing KIF5B-RET-G810C mutant assessed as induction of RET degradation by measuring fold change in RET protein level in tumor at 10 mg/kg, ip measured after 3 days by Western blotting analysis; assay type: functional, organism-based; details: time 3.0 day
smiles,measurement,setting,value
COc1ccc(CN2C3CC2CN(c2ccc(-c4cc(-c5cnn(C6CCN(CCCCCC#Cc7cccc8c7CN(C7CCC(=O)NC7=O)C8=O)CC6)c5)cn5ncc(C#N)c45)cn2)C3)cn1 (centres undefined),fold change (FC),BaF3 [1],0.8
same,fold change (FC),BaF3 [2],0.5
same,fold change (FC),BaF3 [3],0.6
same,fold change (FC),BaF3 [4],0.6
same,fold change (FC),BaF3 [5],0.5
same,fold change (FC),BaF3 [6],0.9
same,fold change (FC),BaF3 [7],0.5
same,fold change (FC),BaF3 [8],0.8
same,fold change (FC),BaF3 [9],0.5
same,fold change (FC),BaF3 [10],0.5
same,fold change (FC),BaF3 [11],1
same,fold change (FC),BaF3 [12],1
same,fold change (FC),BaF3 [13],1
same,fold change (FC),[14],0.5
